{
  "source": "paper PMC11666562",
  "about": "“A shorter linker in the bispecific antibody RmAb158-scFv8D3 improves TfR-mediated blood-brain barrier transcytosis in vitro” (Scientific Reports, 2024)",
  "target": "the molecule itself",
  "test": "mass photometry; mTfR_(Pro119) at 119 nM in PBS, Refeyn 2MP; monomer to dimer",
  "data": [
    {"protein": "mTfR_(Pro119), extracellular domain of murine transferrin receptor (domain or fragment, murine transferrin receptor 1 (mTfR), extracellular domain (ectodomain); construct called mTfR_(Pro119); theoretical molecular weight of the polypeptide 78 kDa; The methods name only a Protein G column for all proteins, so a tag or fusion partner may be present (surmise); also called mTfR ectodomain; murine TfR1; source: Expi293 cells, transient transfection, purified from the cell culture medium) not shown", "values": [
      {"measurement": "stoichiometry N", "result": 2}
    ]}
  ]
}
